Source: publication PMC4919072, “Identification and Biochemical Properties of Two New Acetylcholinesterases in the Pond Wolf Spider (Pardosa pseudoannulata)” (2016)
pIC50: −log10 of the molar value.

Amino acid sequences for entries named in this document (tags omitted). Residues count along the entry.
UniProt A0A1B1FIW2, 23-545 limits assumed: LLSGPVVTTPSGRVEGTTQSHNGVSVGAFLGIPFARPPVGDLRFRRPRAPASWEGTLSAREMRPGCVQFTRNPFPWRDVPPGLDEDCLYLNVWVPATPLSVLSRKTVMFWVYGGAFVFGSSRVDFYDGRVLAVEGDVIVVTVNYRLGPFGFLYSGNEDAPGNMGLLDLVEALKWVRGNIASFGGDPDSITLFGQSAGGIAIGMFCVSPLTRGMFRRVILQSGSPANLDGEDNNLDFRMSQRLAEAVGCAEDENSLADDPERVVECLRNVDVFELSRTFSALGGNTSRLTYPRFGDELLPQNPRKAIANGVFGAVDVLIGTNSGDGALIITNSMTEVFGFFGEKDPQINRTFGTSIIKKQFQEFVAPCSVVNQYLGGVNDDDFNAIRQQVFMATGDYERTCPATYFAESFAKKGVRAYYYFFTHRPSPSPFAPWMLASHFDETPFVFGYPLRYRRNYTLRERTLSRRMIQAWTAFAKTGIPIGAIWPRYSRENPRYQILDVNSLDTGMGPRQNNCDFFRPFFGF
UniProt A0A1B1FIW0, 21-541 limits assumed: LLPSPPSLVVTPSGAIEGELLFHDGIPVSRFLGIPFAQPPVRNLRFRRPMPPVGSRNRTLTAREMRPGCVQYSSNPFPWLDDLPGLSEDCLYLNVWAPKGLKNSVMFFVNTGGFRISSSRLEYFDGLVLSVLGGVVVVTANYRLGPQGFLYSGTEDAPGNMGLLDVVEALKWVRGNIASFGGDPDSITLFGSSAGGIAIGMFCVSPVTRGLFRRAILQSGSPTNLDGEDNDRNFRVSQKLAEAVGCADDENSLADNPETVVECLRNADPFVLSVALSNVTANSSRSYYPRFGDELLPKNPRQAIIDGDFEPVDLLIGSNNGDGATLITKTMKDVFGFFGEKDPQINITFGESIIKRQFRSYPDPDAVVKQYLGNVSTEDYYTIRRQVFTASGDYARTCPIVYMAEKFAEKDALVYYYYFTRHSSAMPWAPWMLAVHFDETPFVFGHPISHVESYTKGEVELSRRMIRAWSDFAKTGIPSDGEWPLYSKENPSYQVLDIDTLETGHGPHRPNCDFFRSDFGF
UniProt A0A1B1FIZ1, 28-554 limits assumed: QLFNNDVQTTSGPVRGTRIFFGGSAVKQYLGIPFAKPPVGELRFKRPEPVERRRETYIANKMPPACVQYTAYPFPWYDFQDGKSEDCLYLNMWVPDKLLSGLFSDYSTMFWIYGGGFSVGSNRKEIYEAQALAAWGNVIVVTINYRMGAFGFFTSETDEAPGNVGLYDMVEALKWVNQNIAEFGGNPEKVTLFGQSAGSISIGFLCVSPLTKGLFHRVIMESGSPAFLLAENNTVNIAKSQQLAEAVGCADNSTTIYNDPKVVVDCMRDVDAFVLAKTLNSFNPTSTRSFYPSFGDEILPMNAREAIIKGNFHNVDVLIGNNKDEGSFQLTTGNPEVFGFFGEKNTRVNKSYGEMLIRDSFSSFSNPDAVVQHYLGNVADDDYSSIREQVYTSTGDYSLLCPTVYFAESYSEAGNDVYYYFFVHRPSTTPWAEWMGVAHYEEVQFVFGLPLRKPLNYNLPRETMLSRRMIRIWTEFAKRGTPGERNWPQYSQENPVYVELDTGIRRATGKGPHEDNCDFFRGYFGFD
UniProt V5QQC6, 26-608 limits assumed: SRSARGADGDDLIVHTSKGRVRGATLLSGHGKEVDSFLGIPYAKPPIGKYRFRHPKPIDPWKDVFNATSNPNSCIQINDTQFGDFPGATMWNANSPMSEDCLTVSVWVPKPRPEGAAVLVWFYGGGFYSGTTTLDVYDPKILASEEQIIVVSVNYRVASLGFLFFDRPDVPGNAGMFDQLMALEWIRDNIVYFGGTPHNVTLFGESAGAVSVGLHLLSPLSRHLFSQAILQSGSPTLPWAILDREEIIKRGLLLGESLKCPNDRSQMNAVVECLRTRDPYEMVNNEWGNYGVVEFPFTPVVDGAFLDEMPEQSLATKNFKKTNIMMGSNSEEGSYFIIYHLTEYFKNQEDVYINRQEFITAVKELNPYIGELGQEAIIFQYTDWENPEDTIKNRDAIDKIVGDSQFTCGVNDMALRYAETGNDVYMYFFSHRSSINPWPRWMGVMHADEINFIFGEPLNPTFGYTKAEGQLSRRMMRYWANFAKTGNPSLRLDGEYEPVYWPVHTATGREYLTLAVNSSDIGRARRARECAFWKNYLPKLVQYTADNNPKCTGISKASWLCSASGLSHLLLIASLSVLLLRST

Tests used:
PpAChE4 [1] = molecular target: T1, PpAChE4 (Pardosa pseudoannulata, UniProt A0A1B1FIW2); test: Kinetics of substrate hydrolysis by recombinant PpAChE4; conditions: for Vmax ratio vs PTC: Vmax of labelled substrate divided by Vmax of PTC; for Vmax: optimal pH 7.5
PpAChE3 [2] = molecular target: T2, PpAChE3 (Pardosa pseudoannulata, UniProt A0A1B1FIW0); test: Kinetics of substrate hydrolysis by recombinant PpAChE3; conditions: for Vmax ratio vs PTC: Vmax of labelled substrate divided by Vmax of PTC
PpAChE2 [3] = molecular target: T3, PpAChE2 (Pardosa pseudoannulata, UniProt A0A1B1FIZ1); test: Kinetics of substrate hydrolysis by recombinant PpAChE2; conditions: for Vmax ratio vs PTC: Vmax of labelled substrate divided by Vmax of PTC
PpAChE1 [4] = molecular target: T4, PpAChE1 (Pardosa pseudoannulata, UniProt V5QQC6); test: Kinetics of substrate hydrolysis by recombinant PpAChE1; conditions: for Vmax ratio vs PTC: Vmax of labelled substrate divided by Vmax of PTC; for Vmax: optimal pH 7.0
PpAChE4 [5] = molecular target: T1, PpAChE4; test: Inhibition of recombinant PpAChE4 enzyme activity (IC50, ki); conditions: for Inhibition kinetics (ki), bimolecular rate constant: ATC hydrolysis
PpAChE1 [6] = molecular target: T4, PpAChE1; test: Inhibition of recombinant PpAChE1 enzyme activity (IC50, ki)
PpAChE2 [7] = molecular target: T3, PpAChE2; test: Inhibition of recombinant PpAChE2 enzyme activity (IC50, ki)
PpAChE3 [8] = molecular target: T2, PpAChE3; test: Inhibition of recombinant PpAChE3 enzyme activity (IC50, ki)
[9] = Vmax of labelled substrate divided by Vmax of BTC
[10] = ATC hydrolysis, not completely inhibited even at very high concentrations

**Q.** With `CCCC(=O)SCC[N+](C)(C)C` as the molecule, how does the “Vmax ratio vs PTC” value (PpAChE4 [1]) read?
**A.** 2.12

**Q.** And the Vmax (PpAChE4 [1])?
**A.** 105.5±8.9b nmol/mg•min

**Q.** And the “Vmax ratio vs PTC” value (PpAChE3 [2])?
**A.** 0.38

**Q.** And the Vmax (PpAChE3 [2]; optimal pH 8.0)?
**A.** 40.3±5.6c nmol/mg•min

**Q.** What about the “Vmax ratio vs PTC” value (PpAChE2 [3]) of the same molecule?
**A.** 1.49

**Q.** What about the Vmax (PpAChE2 [3]; optimal pH 7.0) of the same molecule?
**A.** 233.9±16.5a nmol/mg•min

**Q.** What about the “Vmax ratio vs PTC” value (PpAChE1 [4]) of the same molecule?
**A.** 1.25

**Q.** And the Vmax (PpAChE1 [4])?
**A.** 95.4±12.8b nmol/mg•min

**Q.** Which “Inhibition kinetics (ki), bimolecular rate constant” value (shortened to “Inhibition kinetics (ki)”) (PpAChE4 [5]; PpAChE4) does the source give for `CCOP(=O)(OCC)Oc1ccc([N+](=O)[O-])cc1` here?
**A.** 0.95±0.14b ×10^−6 M^-1 min^-1

**Q.** And the “Inhibition kinetics (ki)” value (PpAChE1 [6]; ATC hydrolysis)?
**A.** 0.43±0.06c ×10^−6 M^-1 min^-1

**Q.** What about the “Inhibition kinetics (ki)” value (PpAChE2 [7]; ATC hydrolysis) of the same molecule?
**A.** 0.13±0.03d ×10^−6 M^-1 min^-1

**Q.** What about the “Inhibition kinetics (ki)” value (PpAChE3 [8]; PpAChE3, ATC hydrolysis) of the same molecule?
**A.** 8.01±1.13a ×10^−6 M^-1 min^-1

**Q.** `CC(=O)SCC[N+](C)(C)C` was tested. Which “Vmax ratio vs BTC” value (PpAChE4 [1]; [9]) did it give?
**A.** 0.82

**Q.** What about the “Vmax ratio vs PTC” value (PpAChE4 [1]) of the same molecule?
**A.** 1.74

**Q.** And the Vmax (PpAChE4 [1])?
**A.** 86.6±9.7c nmol/mg•min

**Q.** And the “Vmax^ATC/Vmax^BTC ratio” value (PpAChE3 [2]; ATC vs BTC)?
**A.** 3.1 fold

**Q.** What about the “Vmax ratio vs BTC” value (PpAChE3 [2]; [9]) of the same molecule?
**A.** 3.09

**Q.** And the “Vmax ratio vs PTC” value (PpAChE3 [2])?
**A.** 1.17

**Q.** And the Vmax (PpAChE3 [2]; optimal pH 8.0)?
**A.** 124.7±11.5b nmol/mg•min

**Q.** What about the “Vmax ratio vs BTC” value (PpAChE2 [3]; [9]) of the same molecule?
**A.** 1.09

**Q.** What about the “Vmax ratio vs PTC” value (PpAChE2 [3]) of the same molecule?
**A.** 1.62

**Q.** What about the Vmax (PpAChE2 [3]; optimal pH 7.0) of the same molecule?
**A.** 253.9±20.4a nmol/mg•min

**Q.** What about the “Vmax ratio vs BTC” value (PpAChE1 [4]; [9]) of the same molecule?
**A.** 1.18

**Q.** What about the “Vmax ratio vs PTC” value (PpAChE1 [4]) of the same molecule?
**A.** 1.48

**Q.** And the Vmax (PpAChE1 [4])?
**A.** 112.6±8.8b nmol/mg•min

**Q.** How did the “Inhibition kinetics (ki)” value (PpAChE4 [5]; PpAChE4) turn out when `CCOP(=O)(OCC)Oc1cc(C)nc(C(C)C)n1` was run?
**A.** 1.13±0.18b ×10^−6 M^-1 min^-1

**Q.** And the “Inhibition kinetics (ki)” value (PpAChE1 [6]; ATC hydrolysis)?
**A.** 0.13±0.05c ×10^−6 M^-1 min^-1

**Q.** What about the “Inhibition kinetics (ki)” value (PpAChE2 [7]; ATC hydrolysis) of the same molecule?
**A.** 0.08±0.03c ×10^−6 M^-1 min^-1

**Q.** What about the “Inhibition kinetics (ki)” value (PpAChE3 [8]; PpAChE3, ATC hydrolysis) of the same molecule?
**A.** 3.55±0.32a ×10^−6 M^-1 min^-1

**Q.** `CCC(=O)SCC[N+](C)(C)C` was tested. Which Vmax (PpAChE4 [1]) did it give?
**A.** 49.7±8.4d nmol/mg•min

**Q.** What about the Km (PpAChE3 [2]; optimal pH 8.0) of the same molecule?
**A.** 504 µM

**Q.** And the Vmax (PpAChE3 [2]; optimal pH 8.0)?
**A.** 106.2±15.1b nmol/mg•min

**Q.** And the Km (PpAChE2 [3]; optimal pH 7.0)?
**A.** 4500 µM

**Q.** What about the Vmax (PpAChE2 [3]; optimal pH 7.0) of the same molecule?
**A.** 156.8±21.3a nmol/mg•min

**Q.** What about the Vmax (PpAChE1 [4]) of the same molecule?
**A.** 76.2±9.2c nmol/mg•min

**Q.** With `C=CC[N+](C)(C)c1ccc(CCC(=O)CCc2ccc([N+](C)(C)CC=C)cc2)cc1` as the molecule, how does the “Difference in IC50 value between BW284C51 (ATC hydrolysis) and ISO-OMPA (BTC hydrolysis)” value (“Difference” below) (PpAChE4 [5]; PpAChE4, more sensitive to BW284C51) read?
**A.** ≥ 8.5 fold

**Q.** What about the “Difference” value (PpAChE1 [6]; more sensitive to BW284C51) of the same molecule?
**A.** ≥ 8.5 fold

**Q.** What about the “Difference” value (PpAChE2 [7]; more sensitive to BW284C51) of the same molecule?
**A.** ≥ 8.5 fold

**Q.** And the “Difference” value (PpAChE3 [8]; PpAChE3, more sensitive to BW284C51)?
**A.** ≥ 8.5 fold

**Q.** Which “Inhibition kinetics (ki)” value (PpAChE4 [5]; PpAChE4) does the source give for `CNC(=O)Oc1cccc2ccccc12` here?
**A.** 5.88±0.92a ×10^−6 M^-1 min^-1

**Q.** What about the “Inhibition kinetics (ki)” value (PpAChE1 [6]; ATC hydrolysis) of the same molecule?
**A.** 1.13±0.05c ×10^−6 M^-1 min^-1

**Q.** What about the “Inhibition kinetics (ki)” value (PpAChE2 [7]; ATC hydrolysis) of the same molecule?
**A.** 0.12±0.03d ×10^−6 M^-1 min^-1

**Q.** And the “Inhibition kinetics (ki)” value (PpAChE3 [8]; PpAChE3, ATC hydrolysis)?
**A.** 3.62±0.44b ×10^−6 M^-1 min^-1

**Q.** How did the pIC50 (PpAChE4 [5]; read-out: IC50 on BTC hydrolysis, PpAChE4 expressed in Sf9 cells, BTC hydrolysis, 10 min incubation with inhibitor) turn out when `CC(C)NP(=O)(NC(C)C)OP(=O)(NC(C)C)NC(C)C` was run?
**A.** < 3.70

**Q.** And the “Inhibition against ATC hydrolysis (in words)” value (shortened to “Inhibition … (in words)”) (PpAChE1 [6]; [10])?
**A.** very weak inhibition

**Q.** What about the “Inhibition … (in words)” value (PpAChE2 [7]; [10]) of the same molecule?
**A.** very weak inhibition

**Q.** And the pIC50 (PpAChE2 [7]; read-out: IC50 value, BTC hydrolysis activity, BTC hydrolysis)?
**A.** > 4.00

**Q.** What about the “Inhibition … (in words)” value (PpAChE3 [8]; PpAChE3, ATC hydrolysis, not completely inhibited even at very high concentrations) of the same molecule?
**A.** very weak inhibition

**Q.** What about the pIC50 (PpAChE3 [8]; read-out: IC50 on BTC hydrolysis, PpAChE3 expressed in Sf9 cells, BTC hydrolysis, 10 min incubation with inhibitor) of the same molecule?
**A.** < 3.70

**Q.** Which results are given for `CCC(C)c1ccccc1OC(=O)NC` (centres unmarked)?
**A.** Inhibition kinetics (ki), bimolecular rate constant (PpAChE4 [5]; PpAChE4): 3.16±0.27b ×10^−6 M^-1 min^-1; Inhibition kinetics (ki), bimolecular rate constant (PpAChE1 [6]; ATC hydrolysis): 14.69±0.89a ×10^−6 M^-1 min^-1; Inhibition kinetics (ki), bimolecular rate constant (PpAChE2 [7]; ATC hydrolysis): 0.30±0.05d ×10^−6 M^-1 min^-1; Inhibition kinetics (ki), bimolecular rate constant (PpAChE3 [8]; PpAChE3, ATC hydrolysis): 2.43±0.52c ×10^−6 M^-1 min^-1
